According to PubChem BioAssay (NCI):
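Five compound concentrations were applied to cells in 96-well plates for 48 hours; endpoints were derived by simple linear interpolation of the resulting dose-response curve. GI50 = concentration required for 50% inhibition of growth. TGI marks complete inhibition of growth.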

Tests used:
Assay in all cases: inhibition of tumour cell growth, NCI panel, 48 h
786-0 renal = system: 786-0 renal
A498 renal = system: A498 renal
A549 NSCLC = system: A549 NSCLC
ACHN renal = system: ACHN renal
BT-549 breast = system: BT-549 breast
CAKI-1 renal = system: CAKI-1 renal
CCRF-CEM leukemia = system: CCRF-CEM leukemia
COLO 205 colon = system: COLO 205 colon
DU-145 prostate = system: DU-145 prostate
EKVX NSCLC = system: EKVX NSCLC
HCC-2998 colon = system: HCC-2998 colon
HCT-116 colon = system: HCT-116 colon
HCT-15 colon = system: HCT-15 colon
HL-60(TB) leukemia = system: HL-60(TB) leukemia
HOP-62 NSCLC = system: HOP-62 NSCLC
HOP-92 NSCLC = system: HOP-92 NSCLC
HS 578T breast = system: HS 578T breast
HT29 colon = system: HT29 colon
IGROV1 ovarian = system: IGROV1 ovarian
K-562 leukemia = system: K-562 leukemia
KM12 colon = system: KM12 colon
LOX IMVI melanoma = system: LOX IMVI melanoma
M14 melanoma = system: M14 melanoma
MALME-3M melanoma = system: MALME-3M melanoma
MCF7 breast = system: MCF7 breast
MDA-MB-231 breast = system: MDA-MB-231 breast
MDA-MB-435 = system: MDA-MB-435
MDA-N = system: MDA-N
MOLT-4 leukemia = system: MOLT-4 leukemia
NCI-H226 lung = system: NCI-H226 lung
NCI-H23 lung = system: NCI-H23 lung
NCI-H322M lung = system: NCI-H322M lung
NCI-H460 lung = system: NCI-H460 lung
NCI-H522 lung = system: NCI-H522 lung
NCI/ADR-RES ovarian = system: NCI/ADR-RES ovarian
OVCAR-3 ovarian = system: OVCAR-3 ovarian
OVCAR-4 ovarian = system: OVCAR-4 ovarian
OVCAR-5 ovarian = system: OVCAR-5 ovarian
OVCAR-8 ovarian = system: OVCAR-8 ovarian
PC-3 prostate = system: PC-3 prostate
RPMI-8226 leukemia = system: RPMI-8226 leukemia
RXF 393 renal = system: RXF 393 renal
SF-268 CNS = system: SF-268 CNS
SF-295 CNS = system: SF-295 CNS
SF-539 CNS = system: SF-539 CNS
SK-MEL-2 melanoma = system: SK-MEL-2 melanoma
SK-MEL-28 melanoma = system: SK-MEL-28 melanoma
SK-MEL-5 melanoma = system: SK-MEL-5 melanoma
SK-OV-3 ovarian = system: SK-OV-3 ovarian
SN12C renal = system: SN12C renal
SNB-19 CNS = system: SNB-19 CNS
SNB-75 CNS = system: SNB-75 CNS
SW-620 colon = system: SW-620 colon
T-47D breast = system: T-47D breast
TK-10 renal = system: TK-10 renal
U251 CNS = system: U251 CNS
UACC-257 melanoma = system: UACC-257 melanoma
UACC-62 melanoma = system: UACC-62 melanoma
UO-31 renal = system: UO-31 renal

O=[As](O)(O)c1ccc([As](=O)(O)O)cc1
GI50 (786-0 renal): > 100 µM
TGI (786-0 renal): > 100 µM
GI50 (A498 renal): > 100 µM
TGI (A498 renal): > 100 µM
GI50 (A549 NSCLC): > 100 µM
TGI (A549 NSCLC): > 100 µM
GI50 (ACHN renal): > 100 µM
TGI (ACHN renal): > 100 µM
GI50 (BT-549 breast): > 100 µM
TGI (BT-549 breast): > 100 µM
GI50 (CAKI-1 renal): > 100 µM
TGI (CAKI-1 renal): > 100 µM
GI50 (CCRF-CEM leukemia): > 100 µM
TGI (CCRF-CEM leukemia): > 100 µM
GI50 (COLO 205 colon): > 100 µM
TGI (COLO 205 colon): > 100 µM
GI50 (DU-145 prostate): > 100 µM
TGI (DU-145 prostate): > 100 µM
GI50 (EKVX NSCLC): > 100 µM
TGI (EKVX NSCLC): > 100 µM
GI50 (HCC-2998 colon): > 100 µM
TGI (HCC-2998 colon): > 100 µM
GI50 (HCT-116 colon): > 100 µM
TGI (HCT-116 colon): > 100 µM
GI50 (HCT-15 colon): > 100 µM
TGI (HCT-15 colon): > 100 µM
GI50 (HL-60(TB) leukemia): > 100 µM
TGI (HL-60(TB) leukemia): > 100 µM
GI50 (HOP-62 NSCLC): > 100 µM
TGI (HOP-62 NSCLC): > 100 µM
GI50 (HOP-92 NSCLC): > 100 µM
TGI (HOP-92 NSCLC): > 100 µM
GI50 (HS 578T breast): > 100 µM
TGI (HS 578T breast): > 100 µM
GI50 (HT29 colon): > 100 µM
TGI (HT29 colon): > 100 µM
GI50 (IGROV1 ovarian): > 100 µM
TGI (IGROV1 ovarian): > 100 µM
GI50 (K-562 leukemia): > 100 µM
TGI (K-562 leukemia): > 100 µM
GI50 (KM12 colon): > 100 µM
TGI (KM12 colon): > 100 µM
GI50 (LOX IMVI melanoma): > 100 µM
TGI (LOX IMVI melanoma): > 100 µM
GI50 (M14 melanoma): > 100 µM
TGI (M14 melanoma): > 100 µM
GI50 (MALME-3M melanoma): > 100 µM
TGI (MALME-3M melanoma): > 100 µM
GI50 (MCF7 breast): > 100 µM
TGI (MCF7 breast): > 100 µM
GI50 (MDA-MB-231 breast): > 100 µM
TGI (MDA-MB-231 breast): > 100 µM
GI50 (MDA-MB-435): > 100 µM
TGI (MDA-MB-435): > 100 µM
GI50 (MDA-N): > 100 µM
TGI (MDA-N): > 100 µM
GI50 (MOLT-4 leukemia): > 100 µM
TGI (MOLT-4 leukemia): > 100 µM
GI50 (NCI-H226 lung): > 100 µM
TGI (NCI-H226 lung): > 100 µM
GI50 (NCI-H23 lung): > 100 µM
TGI (NCI-H23 lung): > 100 µM
GI50 (NCI-H322M lung): > 100 µM
TGI (NCI-H322M lung): > 100 µM
GI50 (NCI-H460 lung): > 100 µM
TGI (NCI-H460 lung): > 100 µM
GI50 (NCI-H522 lung): > 100 µM
TGI (NCI-H522 lung): > 100 µM
GI50 (NCI/ADR-RES ovarian): > 100 µM
TGI (NCI/ADR-RES ovarian): > 100 µM
GI50 (OVCAR-3 ovarian): > 100 µM
TGI (OVCAR-3 ovarian): > 100 µM
GI50 (OVCAR-4 ovarian): > 100 µM
TGI (OVCAR-4 ovarian): > 100 µM
GI50 (OVCAR-5 ovarian): > 100 µM
TGI (OVCAR-5 ovarian): > 100 µM
GI50 (OVCAR-8 ovarian): > 100 µM
TGI (OVCAR-8 ovarian): > 100 µM
GI50 (PC-3 prostate): > 100 µM
TGI (PC-3 prostate): > 100 µM
GI50 (RPMI-8226 leukemia): > 100 µM
TGI (RPMI-8226 leukemia): > 100 µM
GI50 (RXF 393 renal): > 100 µM
TGI (RXF 393 renal): > 100 µM
GI50 (SF-268 CNS): > 100 µM
TGI (SF-268 CNS): > 100 µM
GI50 (SF-295 CNS): > 100 µM
TGI (SF-295 CNS): > 100 µM
GI50 (SF-539 CNS): > 100 µM
TGI (SF-539 CNS): > 100 µM
GI50 (SK-MEL-2 melanoma): > 100 µM
TGI (SK-MEL-2 melanoma): > 100 µM
GI50 (SK-MEL-28 melanoma): > 100 µM
TGI (SK-MEL-28 melanoma): > 100 µM
GI50 (SK-MEL-5 melanoma): > 100 µM
TGI (SK-MEL-5 melanoma): > 100 µM
GI50 (SK-OV-3 ovarian): > 100 µM
TGI (SK-OV-3 ovarian): > 100 µM
GI50 (SN12C renal): > 100 µM
TGI (SN12C renal): > 100 µM
GI50 (SNB-19 CNS): > 100 µM
TGI (SNB-19 CNS): > 100 µM
GI50 (SNB-75 CNS): > 100 µM
TGI (SNB-75 CNS): > 100 µM
GI50 (SW-620 colon): > 100 µM
TGI (SW-620 colon): > 100 µM
GI50 (T-47D breast): > 100 µM
TGI (T-47D breast): > 100 µM
GI50 (TK-10 renal): > 100 µM
TGI (TK-10 renal): > 100 µM
GI50 (U251 CNS): > 100 µM
TGI (U251 CNS): > 100 µM
GI50 (UACC-257 melanoma): > 100 µM
TGI (UACC-257 melanoma): > 100 µM
GI50 (UACC-62 melanoma): > 100 µM
TGI (UACC-62 melanoma): > 100 µM
GI50 (UO-31 renal): > 100 µM
TGI (UO-31 renal): > 100 µM
